Reference: paper PMC4919188 (Nature, 2016)
pEC50: −log10 of the molar value.

Chains of the proteins cited; added tags and fusions are not shown.
UniProt Q99250, whole entry: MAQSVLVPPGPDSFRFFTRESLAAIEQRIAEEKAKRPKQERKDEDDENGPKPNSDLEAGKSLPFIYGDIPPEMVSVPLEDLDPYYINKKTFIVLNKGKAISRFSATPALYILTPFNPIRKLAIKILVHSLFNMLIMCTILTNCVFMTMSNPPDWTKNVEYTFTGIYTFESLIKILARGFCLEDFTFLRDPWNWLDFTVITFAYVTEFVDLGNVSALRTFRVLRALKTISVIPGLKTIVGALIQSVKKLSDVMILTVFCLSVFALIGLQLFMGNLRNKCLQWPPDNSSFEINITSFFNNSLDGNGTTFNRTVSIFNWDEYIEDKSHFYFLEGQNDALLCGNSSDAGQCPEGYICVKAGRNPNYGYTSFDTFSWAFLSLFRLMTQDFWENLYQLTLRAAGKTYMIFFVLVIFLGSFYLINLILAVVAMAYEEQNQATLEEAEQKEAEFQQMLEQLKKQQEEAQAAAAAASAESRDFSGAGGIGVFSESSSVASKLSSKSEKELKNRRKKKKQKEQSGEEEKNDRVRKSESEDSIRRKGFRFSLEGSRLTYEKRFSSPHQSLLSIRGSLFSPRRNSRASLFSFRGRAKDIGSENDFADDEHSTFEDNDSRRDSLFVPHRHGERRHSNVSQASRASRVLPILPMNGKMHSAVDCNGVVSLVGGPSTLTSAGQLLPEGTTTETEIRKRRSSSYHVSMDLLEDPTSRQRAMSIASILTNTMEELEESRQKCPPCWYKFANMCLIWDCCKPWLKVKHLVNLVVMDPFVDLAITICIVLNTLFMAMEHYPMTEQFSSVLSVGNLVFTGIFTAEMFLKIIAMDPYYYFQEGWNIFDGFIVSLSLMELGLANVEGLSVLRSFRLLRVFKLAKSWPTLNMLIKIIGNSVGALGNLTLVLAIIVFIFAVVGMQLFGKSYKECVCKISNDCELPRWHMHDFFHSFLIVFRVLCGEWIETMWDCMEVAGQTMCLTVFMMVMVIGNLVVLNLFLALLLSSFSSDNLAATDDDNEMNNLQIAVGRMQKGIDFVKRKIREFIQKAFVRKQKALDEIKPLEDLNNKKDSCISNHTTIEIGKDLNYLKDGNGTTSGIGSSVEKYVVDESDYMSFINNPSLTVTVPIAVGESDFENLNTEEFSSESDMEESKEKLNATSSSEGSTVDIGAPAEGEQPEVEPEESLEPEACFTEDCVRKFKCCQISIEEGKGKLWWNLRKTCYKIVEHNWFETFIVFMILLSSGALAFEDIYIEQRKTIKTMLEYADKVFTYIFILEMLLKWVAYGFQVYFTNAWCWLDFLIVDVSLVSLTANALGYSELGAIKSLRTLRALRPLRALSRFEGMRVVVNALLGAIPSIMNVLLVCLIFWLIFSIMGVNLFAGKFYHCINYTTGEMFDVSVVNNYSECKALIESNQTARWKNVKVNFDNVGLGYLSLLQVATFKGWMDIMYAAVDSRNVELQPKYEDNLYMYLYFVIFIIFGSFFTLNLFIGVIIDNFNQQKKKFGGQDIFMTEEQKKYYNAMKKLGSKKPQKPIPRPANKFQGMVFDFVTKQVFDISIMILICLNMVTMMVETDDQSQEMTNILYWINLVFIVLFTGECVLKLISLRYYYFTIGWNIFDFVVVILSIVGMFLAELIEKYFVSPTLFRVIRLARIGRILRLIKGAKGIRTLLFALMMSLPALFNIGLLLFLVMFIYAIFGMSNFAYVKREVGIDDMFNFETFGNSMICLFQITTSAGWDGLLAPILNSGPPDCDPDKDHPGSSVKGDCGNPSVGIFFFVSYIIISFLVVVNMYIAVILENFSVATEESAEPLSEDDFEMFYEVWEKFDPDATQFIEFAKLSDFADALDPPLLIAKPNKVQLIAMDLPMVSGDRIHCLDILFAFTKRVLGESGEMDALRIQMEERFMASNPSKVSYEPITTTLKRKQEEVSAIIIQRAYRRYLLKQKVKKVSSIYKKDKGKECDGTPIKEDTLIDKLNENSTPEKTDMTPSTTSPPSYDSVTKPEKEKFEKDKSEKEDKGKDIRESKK
UniProt Q9NY46, whole entry S208D: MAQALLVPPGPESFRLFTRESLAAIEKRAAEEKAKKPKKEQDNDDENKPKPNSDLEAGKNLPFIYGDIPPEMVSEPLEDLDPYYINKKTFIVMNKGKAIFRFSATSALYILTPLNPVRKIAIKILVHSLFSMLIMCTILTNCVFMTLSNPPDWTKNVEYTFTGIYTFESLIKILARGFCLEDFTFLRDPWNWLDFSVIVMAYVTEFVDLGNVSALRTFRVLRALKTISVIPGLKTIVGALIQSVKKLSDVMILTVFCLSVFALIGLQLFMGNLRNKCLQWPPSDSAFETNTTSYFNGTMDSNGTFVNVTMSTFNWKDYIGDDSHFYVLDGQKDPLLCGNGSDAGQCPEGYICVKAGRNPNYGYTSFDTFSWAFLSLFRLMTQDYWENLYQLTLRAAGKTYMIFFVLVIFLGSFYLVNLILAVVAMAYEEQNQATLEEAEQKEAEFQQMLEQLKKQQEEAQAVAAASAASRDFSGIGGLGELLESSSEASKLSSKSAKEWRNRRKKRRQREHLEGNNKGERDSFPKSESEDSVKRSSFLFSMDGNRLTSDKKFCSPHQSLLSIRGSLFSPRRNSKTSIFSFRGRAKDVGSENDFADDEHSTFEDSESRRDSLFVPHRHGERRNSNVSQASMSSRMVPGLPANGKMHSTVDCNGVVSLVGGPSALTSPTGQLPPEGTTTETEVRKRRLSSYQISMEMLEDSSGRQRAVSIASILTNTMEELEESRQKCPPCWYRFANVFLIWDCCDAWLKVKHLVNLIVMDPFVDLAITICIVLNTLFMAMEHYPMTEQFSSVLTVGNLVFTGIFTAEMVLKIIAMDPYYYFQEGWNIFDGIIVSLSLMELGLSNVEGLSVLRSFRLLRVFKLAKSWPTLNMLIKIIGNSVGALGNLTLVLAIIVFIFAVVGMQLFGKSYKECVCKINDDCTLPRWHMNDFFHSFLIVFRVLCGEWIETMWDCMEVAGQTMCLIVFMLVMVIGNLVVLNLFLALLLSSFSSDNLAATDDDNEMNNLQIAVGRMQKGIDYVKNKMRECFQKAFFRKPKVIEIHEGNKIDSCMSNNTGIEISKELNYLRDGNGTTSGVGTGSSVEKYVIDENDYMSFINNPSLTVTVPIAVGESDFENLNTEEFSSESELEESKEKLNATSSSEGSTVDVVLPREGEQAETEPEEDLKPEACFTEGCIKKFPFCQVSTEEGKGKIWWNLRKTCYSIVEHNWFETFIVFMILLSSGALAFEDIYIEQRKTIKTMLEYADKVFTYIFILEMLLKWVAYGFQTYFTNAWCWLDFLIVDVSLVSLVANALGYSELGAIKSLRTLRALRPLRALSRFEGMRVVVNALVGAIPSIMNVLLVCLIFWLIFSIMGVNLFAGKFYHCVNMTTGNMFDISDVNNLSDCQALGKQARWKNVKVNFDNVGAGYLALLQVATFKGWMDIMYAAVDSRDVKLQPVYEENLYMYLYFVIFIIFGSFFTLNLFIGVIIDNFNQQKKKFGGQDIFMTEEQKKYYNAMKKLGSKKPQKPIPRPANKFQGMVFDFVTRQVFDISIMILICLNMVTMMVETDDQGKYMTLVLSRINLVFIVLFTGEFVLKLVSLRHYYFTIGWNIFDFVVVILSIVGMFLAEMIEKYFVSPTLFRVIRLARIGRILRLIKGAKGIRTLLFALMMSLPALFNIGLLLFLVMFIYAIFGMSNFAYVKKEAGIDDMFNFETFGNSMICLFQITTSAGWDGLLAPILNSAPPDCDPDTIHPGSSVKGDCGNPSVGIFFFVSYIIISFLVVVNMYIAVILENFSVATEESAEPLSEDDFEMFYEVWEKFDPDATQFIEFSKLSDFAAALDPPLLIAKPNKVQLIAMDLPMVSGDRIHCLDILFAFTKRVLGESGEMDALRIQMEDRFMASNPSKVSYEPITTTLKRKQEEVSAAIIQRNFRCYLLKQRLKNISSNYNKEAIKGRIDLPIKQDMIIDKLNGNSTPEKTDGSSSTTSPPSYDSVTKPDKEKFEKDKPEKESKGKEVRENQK

How the values were obtained:
hNav1.2 = hNav1.2 (Homo sapiens, UniProt Q99250); type: biochemical
injected paw = conditions: Hm1a intraplantar, mouse
hNav1.3 = hNav1.3 (Homo sapiens, UniProt Q9NY46); type: biochemical

CC(C)C[C@@H]1NC(=O)[C@H](Cc2ccc(O)cc2)NC(=O)[C@H](CCCNC(=N)N)NC(=O)[C@@H](NC(=O)[C@@H](N)CCC(=O)O)CSSC[C@@H]2NC(=O)[C@@H]3CSSC[C@@H](C(=O)N[C@@H](C)C(=O)N[C@@H](Cc4c[nH]c5ccccc45)C(=O)N[C@@H](CC(=O)O)C(=O)NCC(=O)N[C@H](C(=O)N[C@@H](Cc4ccccc4)C(=O)N[C@@H](CO)C(=O)O)[C@@H](C)O)NC(=O)[C@H](Cc4ccc(O)cc4)NC(=O)[C@H](CCCCN)NC(=O)[C@H](Cc4c[nH]c5ccccc45)NC(=O)[C@H](CC(=O)O)NC(=O)[C@H](CO)NC(=O)[C@H](CCCNC(=N)N)NC(=O)[C@H](CSSC[C@H](NC(=O)CNC(=O)CNC(=O)[C@H](Cc4ccccc4)NC1=O)C(=O)N[C@@H](CO)C(=O)N[C@@H](CO)C(=O)N[C@@H]([C@@H](C)O)C(=O)N[C@@H](CO)C(=O)N[C@@H](CC(=O)O)C(=O)N3)NC(=O)[C@H](CO)NC(=O)[C@H](CC(C)C)NC(=O)[C@H](Cc1c[nH]cn1)NC(=O)[C@H](CCCCN)NC2=O [Hm1a]
pEC50 (hNav1.2): 6.63
swelling or plasma extravasation of the injected paw (injected paw): did not produce swelling or plasma extravasation
pEC50 (hNav1.3): 6.66
